From patent US20200109182A1, “GLP-1 ANALOG FUSION PROTEIN AND PREPARATION METHOD AND APPLICATION THEREOF” (JIANGSU T-MAB BIOPHARMA CO., LTD, priority 2013, published 2020)
Values joined by “and” are separate entries in the source; they are usually repeats but may differ in a detail not shown here. Equal entries are not always repeated.

Test system: KM mice
Experiment: Mouse intraperitoneal glucose tolerance test (IPGTT)
Assay type: in vivo
Conditions: for Area under curve (AUC0-120min) of blood glucose during IPGTT, individual animals: animals 1-10, 1 mg/kg
Method: After 1 hour and 8 hours after administration, intraperitoneal glucose tolerance tests (IPGTT) were respectively performed, intraperitoneal injection of 1.5 g/kg glucose was performed, and blood was taken before (t=0) glucose injection and after 10 min, 20 min, 30 min, 60 min, 90 min and 120 min after glucose injection to determine the content of glucose in blood (YSI2700 biochemical analyzer).

[1] = IPGTT 1 h after single 1.0 mg/kg s.c. dose
[2] = IPGTT 8 h after single 1.0 mg/kg s.c. dose

Substance: HSA: human serum albumin, 1.0 mg/kg, control group of the mouse IPGTT [reference compound]
- Area under curve (AUC0-120min) of blood glucose during IPGTT, Mean [1]: 889
- Area under curve (AUC0-120min) of blood glucose during IPGTT, individual animals [1]: 1005 and 1096 and 818 and 713 and 724 and 778 and 817 and 1028 and 1220 and 688
- Area under curve (AUC0-120min) of blood glucose during IPGTT, Mean [2]: 821
- Area under curve (AUC0-120min) of blood glucose during IPGTT, individual animals [2]: 859 and 854 and 735 and 746 and 772 and 831 and 883 and 717 and 882 and 933
